# Results as given in patent publication US20010011084A1, “USE OF ESTROGEN TO MODIFY THE AMOUNT OF SEROTONIN TRANSPORTER OR ITS MRNA” (priority 1996, published 2001).
# Read-outs that look alike come from different tables or passages of the source.
# How the values were obtained:
# [1] = test system: serotonin transporter (SERT) binding sites; details: for [3H]-paroxetine specific binding: OVX rat, 10 μg s.c., mean ± sem
# [2] = test system: SERT mRNA; details: for Labeled cells Cell area / Labeled cells Grain density / Unlabeled cells Cell area / Unlabeled cells Grain density / Labeled cells Number/section: OVX rat, 10 μg s.c., mean ± sem; for Labeled cells Number/section: n = 4
smiles,measurement,setting,value
"C[C@]12CC[C@@H]3c4ccc(OC(=O)c5ccccc5)cc4CC[C@H]3[C@@H]1CC[C@@H]2O [EB, estradiol benzoate]",[3H]-paroxetine specific binding,[1]; Basolateral amygdala,112.7 ± 9.2 (7)*↑ fmol/mg tissue
same,[3H]-paroxetine specific binding,[1]; Cingulate cortex,50.9 ± 4.9 (7) fmol/mg tissue
same,[3H]-paroxetine specific binding,[1]; Dorsal tegmental nucleus,165.2 ± 40.8 (5) fmol/mg tissue
same,[3H]-paroxetine specific binding,[1]; Frontal cortex,21.4 ± 2.4 (7) fmol/mg tissue
same,[3H]-paroxetine specific binding,[1]; Hippocampus: CA1,41.3 ± 7.8 (3) fmol/mg tissue
same,[3H]-paroxetine specific binding,[1]; Hippocampus: CA3,85.3 ± 5.2 (7) fmol/mg tissue
same,[3H]-paroxetine specific binding,[1]; Hypothalamus: Ventromedial,51.0 ± 8.3 (6)**↑ fmol/mg tissue
same,[3H]-paroxetine specific binding,[1]; Lateral geniculate,92.3 ± 6.2 (7) fmol/mg tissue
same,[3H]-paroxetine specific binding,[1]; Lateral septum,40.9 ± 5.5 (7)*↑ fmol/mg tissue
same,[3H]-paroxetine specific binding,[1]; Locus coeruleus,173.0 ± 20.4 (7) fmol/mg tissue
same,[3H]-paroxetine specific binding,[1]; Periaqueductal central gray,76.1 ± 5.5 (7)*↓ fmol/mg tissue
same,[3H]-paroxetine specific binding,[1]; Raphe pontis,124.3 ± 9.1 (4) fmol/mg tissue
same,[3H]-paroxetine specific binding,[1]; Rostral linear nucleus,92.7 ± 13.5 (7) fmol/mg tissue
same,[3H]-paroxetine specific binding,[1]; Superior colliculus,110.0 ± 6.7 (7) fmol/mg tissue
same,[3H]-paroxetine specific binding,[1]; Thalamus: Dorsal,103.1 ± 11.6 (7) fmol/mg tissue
same,[3H]-paroxetine specific binding,[1]; Thalamus: Paraventricular,127.5 ± 8.6 (7) fmol/mg tissue
same,[3H]-paroxetine specific binding,[1]; Thalamus: Ventral,23.2 ± 5.4 (5)*↑ fmol/mg tissue
same,increase in density of SERT binding sites,"[1]; basolateral amygdala, vs oil-treated OVX rats",20%
same,labelling compared with controls (FIG. 3),"[1]; dorsal raphe or median raphe, 10 μg",no apparent difference
same,[3H]-paroxetine specific binding,[1]; dorsal raphe,206.6 ± 10.1 (7) fmol/mg tissue
same,density of binding sites compared with controls (FIG. 3),"[1]; lateral septum, basolateral amygdala, ventral thalamus, ventromedial hypothalamic nucleus, 10 μg",higher
same,increase in density of SERT binding sites,"[1]; lateral septum, vs oil-treated OVX rats",90%
same,[3H]-paroxetine specific binding,[1]; median raphe,146.6 ± 10.3 (7) fmol/mg tissue
same,density of binding sites compared with controls (FIG. 3),"[1]; periaqueductal central gray, 10 μg",lower
same,decrease in density of SERT binding sites,"[1]; periaqueductal central gray, vs oil-treated OVX rats",15%
same,increase in density of SERT binding sites,"[1]; ventral nucleus of thalamus, vs oil-treated OVX rats",250%
same,increase in density of SERT binding sites,"[1]; ventromedial nucleus of hypothalamus, vs oil-treated OVX rats",250%
same,increase in number of cells expressing SERT mRNA (labelled cells),"[2]; dorsal raphe nucleus, vs oil-treated OVX rats",50%
same,Labeled cells Cell area,[2]; dorsal raphe,287 ± 34 μ^2
same,Labeled cells Grain density,[2]; dorsal raphe,16.4 ± 1.19 % cell area
same,Unlabeled cells Cell area,[2]; dorsal raphe,160 ± 35 μ^2
same,Unlabeled cells Grain density,[2]; dorsal raphe,0.57 ± 0.13 % cell area
same,Labeled cells Number/section,[2]; dorsal raphe,158.1 ± 17.8
same,Labeled cells Cell area,[2]; median raphe,230 ± 33 μ^2
same,Labeled cells Grain density,[2]; median raphe,16.1 ± 0.46 % cell area
same,Unlabeled cells Cell area,[2]; median raphe,132 ± 22 μ^2
same,Unlabeled cells Grain density,[2]; median raphe,0.58 ± 0.07 % cell area
same,Labeled cells Number/section,[2]; median raphe,28.7 ± 3.6
same,SERT mRNA containing cells compared with control (FIG. 2),[2]; ventromedial part of the dorsal raphe,many more
